Source: PMC10535864, “Novel Aminopyrimidine-2,4-diones, 2-Thiopyrimidine-4-ones, and 6-Arylpteridines as Dual-Target Inhibitors of BRD4/PLK1: Design, Synthesis, Cytotoxicity, and Computational Studies” (Pharmaceuticals, 2023)

Biological target: T1, BRD4 (BD2) (Homo sapiens, UniProt O60885)
T1 construct: BRD4 (BD2) should be thawed on ice; purchased
Experiment: BRD4 inhibitory activity assay (AlphaLISA Bromodomain Assay);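 also: in vitro inhibition of recombinant BRD4 BD2 bromodomain binding to a BET bromodomain ligand, read by AlphaLISA proximity signal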
Assay type: binding
Settings: BRD4 Lab Report

## CC[C@@H]1C(=O)N(C)c2cnc(Nc3ccc(C(=O)N[C@H]4CC[C@H](N5CCN(CC6CC6)CC5)CC4)cc3OC)nc2N1C(C)C [Volasertib, reference compound]
Conc 0.01 (unit not given)
  %inh: 43%
Conc 0.1 (unit not given)
  %inh: 62%
Conc 1 (unit not given)
  %inh: 77%
Conc 10 (unit not given)
  %inh: 91%
Conc 100 (unit not given)
  %inh: 96%
